Reference: patent US20220211914A1, “HYALURONIC ACID HYDROGELS WITH PROLONGED ANTIMICROBIAL ACTIVITY” (INSTITUT NATIONAL DE LA SANTE ET DE LA RECHERCHE MEDICALE …, priority 2019, published 2022)

Tested on: Balb/3T3 cells
Test: Direct in vitro cytotoxicity test (ISO 10993) with MTT test
Settings: 24 h contact
Protocol: FIG. 14: Cell viability evaluation by MTT test. Balb/3T3 cells were seeded in 24-well plate and put in contact with HA hydrogel discs loaded or not with PARs for 24 h. HA discs correspond to BDDE-crosslinked HA hydrogel discs without PAR, and HA+PARs correspond to HA hydrogels loaded with different PAR concentrations (mg/mL). (A) Cell images after 24 h of direct in vitro cytotoxicity test. (B) Cell viability measured by MTT test. Dashed line corresponds to 70% viability (cytotoxicity limit).
Direct in vitro cytotoxicity test consists in putting material in contact with the cells for 24 h and performing MTT test to evaluate cell viability. According to ISO 10993, the tested material should cover approximately 1/10 of cell layer surface, which corresponds to ˜5 mm hydrogel discs per well of a 24-well plate.
After 24 h at 37° C., hydrogel discs were removed and MTT test was performed in order to measure cell metabolic activity, which often serves to estimate cell viability. […] The number of viable cells correlates to the colour intensity determined by photometric measurements after dissolving the formazan in alcohol (from ISO 10993).
So the discs, loaded or not with PAR, were sterilized and placed onto ˜80% confluent layer of Balb/3T3 cells. For MTT assay, the cells were incubated for 2 h in 0.2 mg/mL MTT-containing cell culture medium. The medium was then removed and formazan was dissolved in DMSO. Absorbance of resulting solutions was measured at 570 nm using spectrophotometer and images were taken around and under the discs to evaluate cell morphology.

[1] = hydrogels loaded with 0.05 mg/mL

Substance: poly-L-arginine [PAR10]
- cytotoxicity by ISO 10993 norms (0.1 mg/mL-loaded hydrogels): non-cytotoxic
- cytotoxicity by ISO 10993 norms [1]: non-cytotoxic

Substance: poly-L-arginine [PAR30]
- cytotoxicity by ISO 10993 norms (0.1 mg/mL-loaded hydrogels): non-cytotoxic
- cytotoxicity by ISO 10993 norms [1]: non-cytotoxic

Substance: poly-L-arginine [PAR200]
- cytotoxicity by ISO 10993 norms (PAR200-loaded hydrogels, loading concentration not stated): cytotoxic
